Biological target: Phosphatidylinositol 4,5-bisphosphate 3-kinase catalytic subunit beta isoform (Homo sapiens, UniProt P42338)
Assay: Inhibition of PI-3K beta (unknown origin)

Sequences of proteins named here, by UniProt entry; tags and fusion partners are left off. A change or cut given only in a name is not applied to a line headed by its entry.
UniProt P42338: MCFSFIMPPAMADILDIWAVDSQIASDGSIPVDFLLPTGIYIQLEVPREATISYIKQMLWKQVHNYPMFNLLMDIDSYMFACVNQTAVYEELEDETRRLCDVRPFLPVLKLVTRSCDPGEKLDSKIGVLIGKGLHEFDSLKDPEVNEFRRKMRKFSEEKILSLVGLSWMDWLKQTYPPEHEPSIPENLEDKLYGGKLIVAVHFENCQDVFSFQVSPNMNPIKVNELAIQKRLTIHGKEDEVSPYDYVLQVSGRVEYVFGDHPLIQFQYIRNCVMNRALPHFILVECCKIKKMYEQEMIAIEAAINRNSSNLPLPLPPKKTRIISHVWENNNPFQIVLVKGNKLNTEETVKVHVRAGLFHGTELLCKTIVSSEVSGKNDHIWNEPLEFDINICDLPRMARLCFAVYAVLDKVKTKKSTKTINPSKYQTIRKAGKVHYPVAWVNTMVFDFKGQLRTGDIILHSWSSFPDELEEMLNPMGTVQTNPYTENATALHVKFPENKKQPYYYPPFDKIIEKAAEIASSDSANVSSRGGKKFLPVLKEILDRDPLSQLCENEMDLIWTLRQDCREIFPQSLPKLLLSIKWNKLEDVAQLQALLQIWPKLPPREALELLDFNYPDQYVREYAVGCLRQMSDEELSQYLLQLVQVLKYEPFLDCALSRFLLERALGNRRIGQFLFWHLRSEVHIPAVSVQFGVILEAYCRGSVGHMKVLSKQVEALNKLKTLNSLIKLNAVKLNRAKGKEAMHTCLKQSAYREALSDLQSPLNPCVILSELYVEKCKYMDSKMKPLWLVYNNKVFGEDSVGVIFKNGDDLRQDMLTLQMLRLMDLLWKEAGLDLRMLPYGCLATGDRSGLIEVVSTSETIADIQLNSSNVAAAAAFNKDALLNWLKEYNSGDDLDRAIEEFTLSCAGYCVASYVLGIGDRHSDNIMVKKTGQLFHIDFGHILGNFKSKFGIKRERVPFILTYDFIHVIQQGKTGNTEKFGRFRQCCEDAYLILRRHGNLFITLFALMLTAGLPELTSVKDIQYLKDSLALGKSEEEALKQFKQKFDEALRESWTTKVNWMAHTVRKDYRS

IC50: 270 nM
Compound: O=c1cc(N2CCOCC2)oc2c(-c3ccccc3)cccc12 [LY-294002]

Source: ChEMBL document CHEMBL2417539, “1-substituted (Dibenzo[b,d]thiophen-4-yl)-2-morpholino-4H-chromen-4-ones endowed with dual DNA-PK/PI3-K inhibitory activity” (J Med Chem, 2013)
